# Measurements as given in PubChem BioAssay AID1745845 (National Center for Advancing Translational Sciences (NCATS), 2022).
# The entries are a selection whose mix differs from that of the whole data set. Results filed as inconclusive are left out. Entries that show only a call come without a potency. Calls of active or inactive are those of the source. Calls follow the shape of the dose curve; as a rule, active = well fitted inhibition curve with a large enough effect; inconclusive = small, poorly fitted or top-dose-only effect; inactive = no such curve, though single readings can be large or run the other way.
# Experiment: Primary qHTS for Inhibitors of ATXN expression; also: nearly all actives have a fitted effect of over 55% in size
# Conditions: HEK-293 ATXN2-luciferase reporter, luminescence, 24 h; series mostly up to 57 µM
# Potency is read from the fitted curve at half-maximal effect.
Compound,"activity change, negative = inhibition",Potency
NC(=O)Nc1ccc([As](=O)(O)O)cc1,inactive,
CN(C(=O)Cc1ccc(Cl)c(Cl)c1)[C@H]1CC[C@@]2(CCCO2)C[C@@H]1N1CCCC1,inactive,
O=[N+]([O-])c1ccc2c(c1)nnn2O,inactive,
CCOP1(=S)c2c(C)nn(CCC#N)c2N=C(c2ccc(F)cc2)N1C (stereo not given),inactive,
CN(C(=O)Cc1ccccc1)[C@@H]1CC[C@]2(CCCO2)C[C@H]1N1CCCC1,inactive,
N#CCCN(C(=O)COC(=O)C(O)(c1ccccc1)c1ccccc1)c1ccc(F)cc1,inactive,
CS(=O)(=O)c1cc([N+](=O)[O-])c2no[n+]([O-])c2c1,inactive,
O=P(Nc1nccs1)(c1ccccc1)c1nc2ccccc2s1 (stereo not given),inactive,
CCOP1(=S)c2c(C)nn(CCC#N)c2N=C(c2ccccc2F)N1C (stereo not given),inactive,
Nc1ccccc1[As](=O)(O)c1ccccc1,inactive,
CCn1c(=O)n([C@@H]2CCN(CC3CCCCCCC3)C[C@@H]2CO)c2ccccc21,inactive,
O=C(O)COc1ccc([As](=O)(O)O)cc1[N+](=O)[O-],inactive,
Cc1ccc(NCCc2c([N+](=O)[O-])cc([N+](=O)[O-])cc2[N+](=O)[O-])cc1,inactive,
CCOP(=O)(Nc1cccc2ccccc12)OCC,inactive,
COc1cc(C2NCCC3(OCCO3)C2(C)C)cc(OC)c1OC (stereo not given),inactive,
CS(=O)(=O)c1ccc(Cl)c(NC(=O)COC(=O)C(O)(c2ccccc2)c2ccccc2)c1,inactive,
COc1cc(C(=O)NCC2(N3CCOCC3)CCCCC2)cc(Cl)c1OC(C)C,inactive,
O=[As](O)(O)c1cccnc1,inactive,
O=C(OC1CN2CCC1CC2)c1ccc(Cl)cc1 (stereo not given),inactive,
O=[As](O)(c1cccc(O)c1)c1cccc(O)c1,inactive,
Cc1cccc(OCC(=O)OC2CN3CCC2CC3)c1 (stereo not given),inactive,
COc1ccccc1CNC(=O)COC(=O)C(O)(c1ccccc1)c1ccccc1,inactive,
CC1(CBr)Cn2c(nc3ccccc3c2=O)S1 (stereo not given),inactive,
CC(C)/C=N\N=C(\N)N[N+](=O)[O-],inactive,

Compound,"activity change, negative = inhibition",Potency
CN(C(=O)Cc1ccc(Cl)c(Cl)c1)[C@@H]1CCCC[C@H]1N1CCCC1,inactive,
CN(CCCl)Cc1cc(Cl)c(NC2=NCCN2)c(Cl)c1,inactive,
CCOP(=O)(NC(=NC(C)c1ccccc1)NC(C)c1ccccc1)OCC (stereo not given),inactive,
O=P1(Nc2ccccn2)COc2ccccc2OC1,inactive,
CCC1=CC2Cc3nc4ccc(Cl)cc4c(N)c3C(C1)C2 (stereo not given),,active: 28.2 µM
O=P1(Nc2ncccn2)COc2ccccc2OC1,inactive,
Cc1ccc(S(=O)(=O)N(CCCN)CCCc2c(C)nc(N)[nH]c2=O)cc1,inactive,
O=P1(Nc2ccc(Br)cn2)COc2ccccc2OC1,inactive,
Cc1ccc(OCC(=O)OC2CN3CCC2CC3)cc1 (stereo not given),inactive,
CC1CCC(C(C)C)C(OP(=O)(Nc2ccccn2)c2ccccc2)C1 (stereo not given),inactive,
Cc1nn(-c2ccccc2)c2c1P(=O)(N1CCOCC1)N(C)C(c1ccccc1)=N2 (stereo not given),inactive,
CCCC1OP(=O)(Nc2ccccc2)OCC1CC (stereo not given),inactive,
O=C(/C=C/c1ccccc1)OC1CN2CCC1CC2 (stereo not given),inactive,
CN(C)C1(CNC(=O)c2ccc(S(C)(=O)=O)cc2)CCCCC1,inactive,
CCOC(=O)Nc1cccc([As](=O)(O)O)c1,inactive,
O=P(Nc1ccccn1)(c1cccc2ccccc12)c1cccc2ccccc12,inactive,
CC1CCNP(=O)(N(CCCl)CCCl)O1 (stereo not given),inactive,
CCOC(=O)Nc1ccc([As](=O)(O)O)c(O)c1,inactive,
Cc1cc(SC(NC(=O)c2ccccc2)C(Cl)(Cl)Cl)nc(C(C)C)n1 (stereo not given),inactive,
CCCCOc1ccc(C(=O)NCC2(N3CCCCC3)CCCCC2)cc1OC,inactive,
CCOC(=O)c1ccc(NC(=O)C(C)(CCl)SC)cc1 (stereo not given),inactive,
O=C(OC1CN2CCC1CC2)c1cccc([N+](=O)[O-])c1 (stereo not given),inactive,
COC(=O)C1(C)COP(=O)(N2CCCC2)OC1 (stereo not given),inactive,
COP1(=S)c2c(C)nn(CCC#N)c2N=C(c2ccc(F)cc2)N1C (stereo not given),inactive,

Compound,"activity change, negative = inhibition",Potency
O=C(COc1ccccc1)OC1CN2CCC1CC2 (stereo not given),inactive,
COc1ccc(N/C(=N/P(=O)(N2CCOCC2)N2CCOCC2)N2CCOCC2)cc1,inactive,
O=[N+]([O-])c1cc(Oc2ccc([N+](=O)[O-])cc2C(F)(F)F)cc([N+](=O)[O-])c1,inactive,
Cc1cc(=O)[nH]c(N[N+](=O)[O-])n1,inactive,
O=C(OC1CN2CCC1CC2)C12CC3CC(CC(C3)C1)C2 (stereo not given),inactive,
COc1cc(I)ccc1[As](=O)(O)O,inactive,
COc1ccc2nc(NP(=O)(c3ccccc3)c3ccccc3)sc2c1,inactive,
O=P1(N(CCCl)CCCl)Nc2ccccc2N1,inactive,
O=P1(N(CCCl)CCCl)OCCCN1CCCl (stereo not given),inactive,
COC(=O)C1(C)COP(=O)(N2CCCCCC2)OC1 (stereo not given),inactive,
ClCCSc1nnc(-c2cccnc2)o1,inactive,
O=C(OC1CN2CCC1CC2)c1cccc2[nH]cnc12 (stereo not given),inactive,
CCN(CC)C(=S)SC(NC=O)C(Cl)(Cl)Cl (stereo not given),inactive,
CC(C)NC(=O)NP(=O)(Oc1ccccc1)Oc1ccccc1,inactive,
COc1cc(C(=O)NCC2(N3CCOCC3)CCCCC2)ccc1OCC(C)C,inactive,
O=[N+]([O-])c1ccc(-c2cc([N+](=O)[O-])c(O)c([N+](=O)[O-])c2)cc1,inactive,
O=[As](O)(c1ccc(O)cc1)c1ccccc1O,inactive,
Cc1ccc2nc3c(c(C)c2c1)CC(C(Cl)Cl)S3 (stereo not given),inactive: -0.605% [at 11.3 µM],
[N-]=[N+]=NC1CCCCC1NC(=O)c1cc([N+](=O)[O-])cc([N+](=O)[O-])c1 (stereo not given),inactive,
CCN(N=Nc1nonc1N)c1nonc1N,inactive,
CCCC1OP(N)(=O)OCC1CC (stereo not given),inactive,
O=C(O)c1ccccc1[As](=O)(O)O,inactive,
CC(=O)Nc1ccc([As](=O)(O)O)cc1,inactive,
O=P(Nc1nc2ccc(Cl)cc2s1)(c1ccccc1)c1ccccc1,inactive,

Compound,"activity change, negative = inhibition",Potency
Cc1ccc(NP(=O)(Oc2ccccc2F)Oc2ccccc2F)nc1,inactive,
CN(C(=O)Cc1ccc(Cl)c(Cl)c1)[C@H]1CCCC[C@@H]1N1CCCC1,inactive,
CCOP(=O)(Nc1ccccc1)OCC,inactive,
Cc1cc(SC(NC(=O)c2ccc(F)cc2)C(Cl)(Cl)Cl)ncn1 (stereo not given),inactive,
CC(C)CC(=O)NC(Sc1ccc(Cl)cc1)C(Cl)(Cl)Cl (stereo not given),inactive,
Nc1cc(N)c2nonc2c1[N+](=O)[O-],inactive,
O=C(NC(Sc1ccncn1)C(Cl)(Cl)Cl)c1ccccc1 (stereo not given),inactive,
Oc1ccccc1CNc1ccccn1,inactive,
O=[N+]([O-])C1C(O)C(O)C([N+](=O)[O-])C(O)C1O (stereo not given),inactive,
Cc1ccc(N/C(=N/P(=O)(N2CCOCC2)N2CCOCC2)N2CCOCC2)cc1,inactive,
CN(C(=O)Cc1ccc(Cl)c(Cl)c1)[C@H]1CCCC[C@H]1N1CCCC1,inactive,
Cc1ccc(OP(=O)(Nc2nccs2)Oc2ccc(C)cc2)cc1,inactive,
COc1ccccc1OP(=O)(Nc1ccc(C)cn1)Oc1ccccc1OC,inactive,
CCNC(C)Cc1ccc2c(c1)OCO2 (stereo not given),inactive,
Clc1ccc(Cl)c(NC2=NCC(CBr)S2)c1 (stereo not given),inactive: -5.49% [at 11.3 µM],
CN1CCCC(OC(=O)C(c2ccccc2)c2ccccc2)C1 (stereo not given),inactive,
Nc1ccc([As](=O)(O)c2ccc(N)cc2)cc1,inactive,
CCN(/C(=N/P(=O)(N1CCOCC1)N1CCOCC1)N1CCOCC1)c1ccc(OC)cc1,inactive: -12.4% [at 11.3 µM],
CN(C)C(=O)OCCc1n(C)cc[n+]1C,inactive,
CC(C)=N/N=C(\N)N[N+](=O)[O-],inactive,
CC1CCN(C(=O)Oc2c(Cl)cc(Cl)c3cccnc23)CC1,inactive,
COc1ccc(C2=NCC(CBr)S2)cc1 (stereo not given),inactive,
O=[N+]([O-])c1cccc2n[nH]nc12,inactive,
CC(=O)N1C2C3N(C(C)=O)C1C1N(C(C)=O)C(C(N1C(C)=O)N3C(C)=O)N2C(C)=O,inactive,

Compound,"activity change, negative = inhibition",Potency
O=[N+]([O-])c1cc([N+](=O)[O-])c(CCNc2ccccc2)c([N+](=O)[O-])c1,inactive,
Cc1ccc(NP(=O)(Oc2ccccc2)Oc2ccccc2)nc1,inactive,
COC(=O)C1(C)COP(=O)(Nc2ccccc2)OC1 (stereo not given),inactive,
O=P1(N(CCCl)CCCl)OCCCS1 (stereo not given),inactive,
O=[N+]([O-])c1ncn(CCn2cnc([N+](=O)[O-])n2)n1,inactive,
CC(=O)NC(SC(=S)N(C)C)C(Cl)(Cl)Cl (stereo not given),inactive,
O=[As](O)(c1ccccc1)c1ccc(O)cc1,inactive,
Nc1ccc([As](=O)(O)c2ccc([N+](=O)[O-])cc2)cc1,inactive,
C(Cc1nn[nH]n1)Cc1nn[nH]n1,inactive,
O=C(OC1CN2CCC1CC2)c1cccc(Cl)c1 (stereo not given),inactive,
Nc1ccc(CCCCOc2ccccc2)cc1,inactive,
COc1ccc(N)c([N+](=O)[O-])c1[N+](=O)[O-],inactive,
O=P(Nc1ccccn1)(c1ccc(Br)cc1)c1ccc(Br)cc1,inactive,
CN(C)C1(CNC(=O)c2ccc(Cl)c(S(N)(=O)=O)c2)CCCCC1,inactive,
C[C@H]1OP(=O)(Oc2ccccc2)[C@H](O)[C@H](O)[C@H]1N=[N+]=[N-] (stereo not given in full),inactive,
O=P(Nc1nc2ccccc2s1)(c1ccccc1)c1ccccc1,inactive,
CN(C(=O)Cc1ccccc1)[C@H]1CC[C@@]2(CCCO2)C[C@@H]1N1CCCC1,inactive,
Cc1cc([N+](=O)[O-])cc([N+](=O)[O-])c1O,inactive,
CC(C)C(=O)NC(Sc1ccccc1)C(Cl)(Cl)Cl (stereo not given),inactive,
O=P(Nc1nccs1)(c1ccccc1)c1ccccc1,inactive,
c1nnnn1CCn1cnnn1,inactive,
COC(=O)C1(C)COP(=O)(NCc2ccccc2)OC1 (stereo not given),inactive,
CC(=O)c1ccc(N2CC2c2ccncc2)cc1 (stereo not given),inactive,
C[C@@H]1C=CCP(=O)(Oc2ccccc2)O1 (stereo not given in full),inactive,
